This test concerns the target CXCR4 (Homo sapiens, UniProt P61073). The experiment in a line: Competition assays: test compounds binding to CXCR4 compared to SDF-1 (Table 2). The conditions noted are these: competition with SDF-1 for binding to CXCR4.

Protein sequences, listed by entry. Tags and fused reporters are not part of them.
UniProt P61073, whole entry: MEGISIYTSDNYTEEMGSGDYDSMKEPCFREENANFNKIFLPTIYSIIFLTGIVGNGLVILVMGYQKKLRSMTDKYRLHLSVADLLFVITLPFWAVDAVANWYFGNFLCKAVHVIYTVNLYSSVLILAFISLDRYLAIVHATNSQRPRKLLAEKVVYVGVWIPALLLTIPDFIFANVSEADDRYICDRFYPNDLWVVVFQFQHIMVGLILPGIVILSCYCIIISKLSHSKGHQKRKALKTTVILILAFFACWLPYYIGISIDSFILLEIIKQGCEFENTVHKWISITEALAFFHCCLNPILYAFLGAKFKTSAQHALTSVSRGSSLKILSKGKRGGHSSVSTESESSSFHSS

By IC50 is commonly meant the concentration that inhibits the measured activity by half.

In the case of `Fc1cc(F)nc(NCc2ccc(CNc3nc(F)cc(F)n3)cc2)n1` [MSX-194], the IC50 was determined as 1 nM.
